# Binding of CDR-mutated scFvs to a peptide of the spike HR2 region

Reference: Li et al. 2023, doi:10.1038/s41467-023-39022-2. File: FLAb, binding data.

Antigen: PDVDLGDISGINAS, a 14-residue peptide of the SARS-CoV-2 spike HR2 region.

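Phage display of a naive human antibody library on the peptide gave the parent. These sequences belong to a second round, designed from the earlier measurements on random variants of the parent. Group labels follow the data file (Ctrl: baseline library sampled from a position-specific scoring matrix, with some repeated check sequences; Rand: our label for a block that the file lists under HC and that is probably the random mutants of the ten best first-round binders; En: ensemble of fine-tuned language models; GP: Gaussian process model; GPLM: also part of the Gaussian process libraries; HC: hill climbing; Gen: genetic algorithm; Gibbs: Gibbs sampling; a sequence that several methods proposed may carry one label only). The scFvs were displayed on barcoded MATa yeast, the peptide on MATalpha yeast. The frequency of each diploid, read from paired DNA barcodes, reflects how well the two displayed proteins bind. A regression on co-assayed BCL2-family reference pairs converts the normalised counts of each replicate to an apparent Kd. Each pool was mated in six replicate cultures.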

Parent: Ab-14, a human scFv built as VH, a (GGGGS)3 linker, VL. Only the CDRs of the light chain vary.
VH: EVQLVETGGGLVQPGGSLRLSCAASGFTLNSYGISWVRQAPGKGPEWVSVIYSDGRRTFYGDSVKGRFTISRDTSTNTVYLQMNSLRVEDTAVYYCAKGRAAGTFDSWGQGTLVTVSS
VL: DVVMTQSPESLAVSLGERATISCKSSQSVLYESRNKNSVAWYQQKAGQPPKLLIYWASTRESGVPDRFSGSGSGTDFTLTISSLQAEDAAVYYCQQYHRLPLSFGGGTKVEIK

Variants are written as CDR1, CDR2 and CDR3 of the light chain (limits as in the source). Parent: KSSQSVLYESRNKNSVA, WASTRES, QQYHRLPLS.
Affinities are written as log10 Kd with Kd in nM; a lower number is a better binder.
Replicates are averaged; those with no signal do not enter the mean.
"not detected" means that the variant was in the library but no mating with the target was seen in any replicate; the authors take this as a sign of poor binding, and no number exists.
Order: sorted from the lowest average up, undetected variants last.
Values of this round are not directly comparable with the first-round values of the same sequences.
The authors averaged sequences with at least three values out of six and counted those with two or fewer as poor binders.
Of ten entries with the parent sequence, four were seen in most replicates (averages 0.34 to 2.37), three in one and three in none, so single entries are noisy.
Nonspecific signal, from three strains lacking the peptide, appeared in 4% of pairings of all light chain designs, centred on 2.64 (5% of these signals below 1.59); values are not corrected for it. For each scFv, signals with the empty controls are counted beside the result.

CDR-L1,CDR-L2,CDR-L3,group,"mean, log10 nM",seen in,empty controls
KMSQSWLYESRNKNSVA,NASERES,QQYHRLPLS,GP_Gen,-0.56,6 of 6,1 of 18
KFSQSFLYESRNKNSVA,DASTRES,QQYHRLPLS,GP_Gen,-0.49,6 of 6,0 of 18
KVSQSVLYEDRNKNSVA,HASQRES,QQYHRLPLS,GP_Gen,-0.46,6 of 6,0 of 18
KLSQLVLYESRNKNSVA,EASTRES,QQYHRLPLS,GP_Gen,-0.46,6 of 6,0 of 18
KSSISYLPEKRNKNSVA,EASTRES,QQYHRLPLS,GP_HC,-0.42,6 of 6,0 of 18
KLSQSVWYESRNKNSVA,EASTRES,QQYHRLPLS,GP_Gen,-0.30,6 of 6,1 of 18
KSSISDLYESVNKNSVA,AASTRES,QQYHRLPLS,GP_HC,-0.24,6 of 6,0 of 18
KLDQSWLYESRNKNSVA,NASQRES,QQYHRLPLS,GP_Gen,-0.23,6 of 6,2 of 18
KLQQQELYESRNKNSVA,NASDRQS,QQYHRLPLS,GP_Gibbs,-0.20,6 of 6,2 of 18
KLSQSWLYESRNKNSVA,NASQREQ,QDYHRLPLS,GP_Gen,-0.19,6 of 6,1 of 18
KSLQSTLYESRNKNSVA,HASTREQ,QQYHRLPLS,GP_HC,-0.17,6 of 6,0 of 18
KLSQSVLYESRQKNSVA,NASTRED,QQYHRLPLS,GP_Gen,-0.15,6 of 6,0 of 18
KLSQSVLYESRNKNNVA,NASTRES,QQYHRLPLS,GP_Gen,-0.07,6 of 6,0 of 18
KVSQSMLYESRNKNSVA,HASTRES,QQYHRLPLS,GP_Gen,-0.07,6 of 6,0 of 18
TLYGLSNSMSINKNSVA,EMTTREK,QQYDRLPLF,En_Gen,-0.03,6 of 6,2 of 18
TLSQVHGMLSHNKNSVA,DMNTRGS,QQYDRLPLS,En_HC,0.00,6 of 6,0 of 18
KMSQSVLMGGRNDNSVA,SASTRCS,QQYHRLPLS,GP_Gibbs,0.02,6 of 6,0 of 18
KLQQSDLYESRNKNSVA,QASTRES,QQYHRLPLS,GP_Gen,0.05,6 of 6,2 of 18
KSSWSQLYESNNKNSVA,HASTRED,QQYHRLPLS,GP_HC,0.05,6 of 6,6 of 18
NVRLNEGEIDMHWYNIA,SVDIRAD,QQYSRLPLF,En_Gibbs,0.09,6 of 6,3 of 18
KVSQSVLYESRMKNSVA,DASTRCS,QQYHRLPLF,GP_HC,0.10,6 of 6,2 of 18
KLSQSFLYESRNKNSVA,EASTRCS,QQYHRLPLS,GP_Gen,0.12,6 of 6,1 of 18
SLDQSVLYESRNKNSVA,HASLRED,QQYHRLPLS,GP_HC,0.14,6 of 6,0 of 18
KLSQSWLYESRNKNSVA,NASTRSS,QQYHRLPLS,GP_Gen,0.20,6 of 6,1 of 18
KLSESVLYESQNWNQVA,EASTRMS,QQYHRLPLS,GP_Gibbs,0.24,6 of 6,0 of 18
KLSSSVLYESRNKNSVA,EASTRES,QQYHRLPLS,GP_Gen,0.28,6 of 6,0 of 18
QLSMWEQNGGRGYSSVA,DDDVRMA,QQYHRLPLS,En_Gibbs,0.32,6 of 6,1 of 18
KGSQWQLYESRNKNNVA,NASLREM,QQYHRLPLS,GP_Gibbs,0.32,6 of 6,1 of 18
KLSGSVGYESRNPNSVA,NASTREL,QQYHRLPLS,GP_Gibbs,0.33,6 of 6,0 of 18
KSSISYLYESGNKNSVA,EASTRES,QQYHRLPLS,GPLM_HC,0.33,6 of 6,1 of 18
QLSMITGHMSVSKNNVA,EMETRMN,QQYDRLPLS,En_Gen,0.37,6 of 6,2 of 18
NFPQETMYESHFKNNVA,QTSTREP,QQYDHLPLS,En_HC,0.40,6 of 6,0 of 18
KQQILVEQESRQKNSVA,NASKRES,QQYHRLPLS,GP_Gibbs,0.45,6 of 6,0 of 18
TISQVMNSLTRHGNNVA,DLEERED,QQYFRLPLS,En_Gen,0.46,6 of 6,0 of 18
KLSQSKLYESRNKNSVA,NASTRES,QQYHRLPLS,GP_Gen,0.49,6 of 6,0 of 18
MISQVMNTLTRNTNNVA,DLTEREK,QQYFRLPLS,En_Gen,0.51,6 of 6,0 of 18
FVQQNFIDGMERQYSVA,ETSRVME,QQYFHLPLI,En_Gibbs,0.68,6 of 6,0 of 18
TLYGLSMSMSKNKNNVA,EMTTRLK,QQYDRLPLV,En_Gen,0.68,6 of 6,0 of 18
KIIDFSLVSMKAHNSIA,DNDMRND,QQYDRLPLS,En_Gen,0.71,6 of 6,1 of 18
KSSESVLDESRNKNSVA,WGSTRES,QQYHRLPLS,Ctrl,0.71,6 of 6,2 of 18
MISQLFMYGSRNYNSVA,QASTREN,QQYDRLPLI,En_HC,0.75,6 of 6,0 of 18
MISQLTNMGQFAINSVA,QASERSN,QQYDRLPLM,En_Gen,0.83,6 of 6,3 of 18
KIYAATMLESHDKNSIA,DLTTRGN,QQYHRLPLS,En_HC,0.84,6 of 6,0 of 18
KLSNSWLMESRNSNSVA,HASKRMS,QQYHRLPLS,GP_Gibbs,0.89,6 of 6,1 of 18
KSSQSVLMESRNKNSVA,WASTREE,QQYHRLPLS,Ctrl,0.97,3 of 6,0 of 18
KLTVAMASWRGQRHNIA,EATVTAP,QQYSRLPIS,En_Gibbs,1.09,6 of 6,1 of 18
TLSDLMYMESRNVNNVA,DLVKRES,QQYHRLPLS,En_HC,1.10,6 of 6,1 of 18
TISQMSQLFSQTINNVA,EVSTRLN,QQYDRLPLS,En_Gen,1.12,6 of 6,3 of 18
ISSQSVAYESRNKNSVA,GASTRES,QQYNRLPLS,Ctrl,1.18,6 of 6,2 of 18
KLDMNELGQSQNSSHVA,GSANKCQ,QQYFRLPLS,En_Gibbs,1.20,6 of 6,0 of 18
KLMMSLQGNPKDHYAIA,EGISATT,QQYARLPLM,En_Gibbs,1.23,6 of 6,0 of 18
KLLQTVMNETRNKNNVA,HMTTRED,QQYHRLPLI,En_HC,1.39,6 of 6,1 of 18
KLTQTMRFEQKSKNNIA,EVTTRSK,QQYDRLPLS,En_Gen,1.44,5 of 6,0 of 18
KVSEFMKGLTMRKDSIA,DNNTRGS,QQYDRLPLS,En_Gen,1.47,6 of 6,0 of 18
KLVQFMNRGTHHTSNIA,DAQNRID,QQYARLPLA,En_Gen,1.50,4 of 6,0 of 18
KLPQSHLYESRNKNSVA,QASTRLS,QQYHRLPLS,GP_Gen,1.51,6 of 6,2 of 18
KLSQSVLGESQNKNSVA,RASTRES,QQYHRFPLS,Ctrl,1.54,6 of 6,0 of 18
MLSDHVKMGSRNTNSVA,DNSTRGS,QQYDRLPLS,En_HC,1.61,6 of 6,3 of 18
IVSQLMLWGHLAKNSIA,EAEERLN,QQYDRLPLF,En_Gen,1.66,1 of 6,0 of 18
KLSIFHQVESINKSNVA,EMVTRES,QQYDRLPLS,En_HC,1.90,4 of 6,0 of 18
KSSQSVLYESRNKQSVA,WASTRES,QQYHKLPLS,Ctrl,1.96,2 of 6,2 of 18
KSSQSVLNESRNKNSVA,GASTRES,GSYHRLPLS,Ctrl,1.96,5 of 6,1 of 18
TIGQTLMMGMRNRSNVA,EVSQRLN,QQYDRLPLL,En_Gen,2.26,6 of 6,0 of 18
TLSQMSGVESVKHNNVA,ENSTREK,QQYDRLPLA,En_Gen,2.27,1 of 6,1 of 18
KLRQSTLYESRNKNSVA,WASTRES,QQYHRLPLR,Rand,2.34,5 of 6,1 of 18
SMQSDQIGGNQQTNSIA,GESVADM,QHYERLPLS,En_Gibbs,2.36,4 of 6,1 of 18
KSSQSVLYENRNKNSVA,WASTRES,QQYHRFPLS,Ctrl,2.41,1 of 6,0 of 18
KLTATYRFESQNKNNIA,EMTTRES,QCYHRLPLS,En_HC,2.41,4 of 6,1 of 18
FFSLIQGSYGEANNSIA,ERNTKAP,QQYGRLPLV,En_Gibbs,2.77,3 of 6,0 of 18
KSSQSVLYESRNKNSVA,WASTRES,QQYHRLPLW,Ctrl,2.84,1 of 6,1 of 18
HIGLSTMLEEYVRNSVA,NNSTREK,QQYDRLPLS,En_Gen,2.90,5 of 6,3 of 18
KSSQNVLYESTNKNSVA,WAITRES,QQYHRLQKA,Ctrl,not detected,0 of 6,0 of 18
FYSQSFLYESRNKNSVA,WASTRES,QQYCQLPLS,Ctrl,not detected,0 of 6,1 of 18
KSSQSVLYESQNKNSVA,WASTRES,YQYHRLPLS,Ctrl,not detected,0 of 6,0 of 18
KSSQSVLYESRNKNSVA,WDSTRES,QQYHRLPLS,Ctrl,not detected,0 of 6,0 of 18
KSSQSVLYESRNKNDVA,MASTRES,QQYNRLPLS,Ctrl,not detected,0 of 6,0 of 18
KSVQKVLDEDSNNNSVA,WASTRES,QQYHRLPLS,Ctrl,not detected,0 of 6,0 of 18
VMFMGLYWNNDETYAIA,DVTMKEK,QQYNRLPLM,En_Gibbs,not detected,0 of 6,0 of 18

Excerpt, the final 6 entries:

{"CDR-L1": "FYSQSFLYESRNKNSVA", "CDR-L2": "WASTRES", "CDR-L3": "QQYCQLPLS", "group": "Ctrl", "mean, log10 nM": "not detected", "seen in": "0 of 6", "empty controls": "1 of 18"}
{"CDR-L1": "KSSQSVLYESQNKNSVA", "CDR-L2": "WASTRES", "CDR-L3": "YQYHRLPLS", "group": "Ctrl", "mean, log10 nM": "not detected", "seen in": "0 of 6", "empty controls": "0 of 18"}
{"CDR-L1": "KSSQSVLYESRNKNSVA", "CDR-L2": "WDSTRES", "CDR-L3": "QQYHRLPLS", "group": "Ctrl", "mean, log10 nM": "not detected", "seen in": "0 of 6", "empty controls": "0 of 18"}
{"CDR-L1": "KSSQSVLYESRNKNDVA", "CDR-L2": "MASTRES", "CDR-L3": "QQYNRLPLS", "group": "Ctrl", "mean, log10 nM": "not detected", "seen in": "0 of 6", "empty controls": "0 of 18"}
{"CDR-L1": "KSVQKVLDEDSNNNSVA", "CDR-L2": "WASTRES", "CDR-L3": "QQYHRLPLS", "group": "Ctrl", "mean, log10 nM": "not detected", "seen in": "0 of 6", "empty controls": "0 of 18"}
{"CDR-L1": "VMFMGLYWNNDETYAIA", "CDR-L2": "DVTMKEK", "CDR-L3": "QQYNRLPLM", "group": "En_Gibbs", "mean, log10 nM": "not detected", "seen in": "0 of 6", "empty controls": "0 of 18"}